AlphaSeq binding of Ab-14 heavy chain variants to a spike HR2 peptide

Target: peptide PDVDLGDISGINAS, taken from heptad repeat 2 (HR2) of SARS-CoV-2 spike.

Each scFv is VH, a 15-residue (Gly4Ser)3 linker, VL, as in the parent Ab-14, and differs from it in the CDRs of the heavy chain only.
VH: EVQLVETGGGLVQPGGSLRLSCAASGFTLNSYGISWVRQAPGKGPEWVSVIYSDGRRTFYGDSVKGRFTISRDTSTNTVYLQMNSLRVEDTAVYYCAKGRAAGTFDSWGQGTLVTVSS
VL: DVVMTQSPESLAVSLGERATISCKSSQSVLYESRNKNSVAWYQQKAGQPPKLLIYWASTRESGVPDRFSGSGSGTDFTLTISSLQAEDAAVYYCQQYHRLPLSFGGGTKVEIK

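Phage display of a naive human antibody library on the peptide gave the parent. Variants in AAYL49 differ from the parent at up to three CDR positions; double and triple changes were sampled at random. AlphaSeq pools MATa yeast showing the antibodies with MATalpha yeast showing the peptide. The frequency of each diploid, read from paired DNA barcodes, reflects how well the two displayed proteins bind. Each replicate has its own calibration line, from reference interactions of the BCL2 family. Each pool was mated in three replicate cultures.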

The parent's heavy chain CDRs are GFTLNSYGIS, VIYSDGRRTFYGDSVK, GRAAGTFDS; each variant's own CDRs replace them letter for letter.
Every variant below is changed at F105 of the VH (sequential numbering).
Scale: log10 of Kd in nM, estimated from mating counts; low values are strong binders.
Replicates are averaged; those with no signal do not enter the mean.
An entry "ND" has no value in the source: the pair was not observed among the diploids in that replicate. This suggests poor binding but is not conclusive.

The variant GFTLNSYGIS, VIYSDGRRTFYGDSAK, GRAAGTSDS showed ND, ND, 4.13 (controls 1 of 9).
The variant GFTANSYGIS, VIYSDGRRTFYGDSVK, FRAAGTVDS showed ND, 3.06, ND (controls 0 of 9).
The variant GKTLNSYGID, VIYSDGRRTFYGDSVK, GRAAGTPDS showed 3.96, ND, 4.13 (mean 4.04; controls 2 of 9).
The variant GFTLNSYGQS, VIYSDGRRTFYVDSVK, GRAAGTGDS showed ND, ND, 4.22 (controls 5 of 9).
The variant GFTMNSYGIS, NIYSDGRRTFYGDSVK, GRAAGTEDS showed ND, 3.84, ND (controls 4 of 9).
The variant GFTLNSYGIS, VIYSDGRRTFHGDSVK, GRAAGTHDS showed ND, 5.31, 4.43 (mean 4.87; controls 4 of 9).
The variant GFTLNLYGIS, VIYSDGRRTFYGDSCK, GRAAGTCDS showed 3.72, ND, ND (controls 1 of 9).
The variant GFTLNSYGIS, VIYSDGRRTFYGDHCK, GRAAGTTDS showed 3.72, 3.65, 4.29 (mean 3.89; controls 0 of 9).
The variant GFTLNSYGSS, VIYSDGRRTFYGDSVK, GRAAGTDDD showed ND, ND, ND (controls 1 of 9).
The variant GFTLNSFGIS, VIYSDGRRTFYGHSVK, GRAAGTWDS showed ND, ND, ND (controls 1 of 9).
The variant GFTLNSYPIS, VIYSDGRRLFYGDSVK, GRAAGTRDS showed 6.06, 3.16, 3.45 (mean 4.23; controls 3 of 9).
The variant GFTLNSYGIS, VIYSDGRMTFYGDSVK, GRAAGTYDS showed ND, ND, ND (controls 0 of 9).
The variant FFTLNSYGIS, VIYSDGTRTFYGDSVK, GRAAGTGDS showed 3.90, 2.65, 3.33 (mean 3.29; controls 0 of 9).
The variant GFTLNSYGIS, VIYSDGRRTFYGDSVR, GRAAGTHDS showed ND, ND, ND (controls 0 of 9).
The variant GYTLNSYGIS, VIYSDGRRTFYGDVVK, GRAAGTCDS showed ND, ND, ND (controls 0 of 9).
The variant GFTLNSYGIS, VISSDGRRTFYGDHVK, GRAAGTDDS showed 5.13, 3.14, ND (mean 4.14; controls 1 of 9).
The variant GFTLNIYGIS, VIYSDGRRTFYGDSVK, GRAAGKADS showed ND, ND, ND (controls 6 of 9).
The variant GFTLNSYGIS, VIYSDSRRTFYGDSVK, GRAAGTKDS showed ND, ND, ND (controls 0 of 9).
The variant GFTLNSYGCS, VIYSDGRRTFYGDSVK, GRAAGTVDS showed ND, 3.87, ND (controls 3 of 9).
The variant GFTLNSFGIA, VIYSDGRRTFYGDSVK, GRAAGTWDS showed ND, ND, 5.72 (controls 3 of 9).
The variant GFTLNSYGIS, VGYSDGRRTLYGDSVK, GRAAGTGDS showed ND, ND, ND (controls 1 of 9).
The variant GFTLNSYGIS, VIYSDQRRTFYGDSVK, GRRAGTMDS showed ND, ND, ND (controls 0 of 9).
The variant GFTLRSYGIS, VIYSDGRRTRYGDSVK, GRAAGTCDS showed 6.38, ND, 4.22 (mean 5.30; controls 6 of 9).
The variant GFTTNSYGIS, VIYSDGRRTFYGDSVK, RRAAGTPDS showed ND, ND, ND (controls 0 of 9).
The variant GFTLNSYGIS, VIYNDGRRTFYGDSRK, GRAAGTQDS showed ND, ND, ND (controls 0 of 9).
The variant GFTLNSYGIS, VIYSDGRRTFYGDSVK, GRAAGTWDS showed 1.86, 1.63, 1.90 (mean 1.80; controls 1 of 9).
The variant GFTLNSYGIS, VIYSDGRRTFYGDSVK, GYAAGTEDN showed ND, ND, ND (controls 0 of 9).
The variant GFTLNNYGIS, VIYSDGARTFYGDSVK, GRAAGTSDS showed ND, ND, ND (controls 0 of 9).
The variant GFTLNSYGIS, VIYSDGRRYFYGDSVK, GRAAGTHCS showed ND, ND, ND (controls 0 of 9).
The variant GFTLDSYGIS, VIYSDGRRTFYGDSVK, GRAAGTALS showed -0.47, -0.13, -0.43 (mean -0.34; controls 0 of 9).
The variant GFTLNEYGIS, VIYSDGRRTFYGDSVK, GRAAHTKDS showed 0.09, 0.45, 0.23 (mean 0.26; controls 4 of 9).
The variant GFTLNSYGIR, VIYSDGRRTFYGDSVK, GRAAGTSDS showed ND, ND, ND (controls 1 of 9).
The variant GFTLNSYGIS, SIYSDGRRTFYGNSVK, GRAAGTLDS showed ND, ND, 4.69 (controls 1 of 9).
The variant GFTLNSYGIL, VIYSDGRRTFYGDSSK, GRAAGTWDS showed ND, 3.16, ND (controls 2 of 9).
The variant GFTLNSYNIS, VIYSDGRRTFYGDSVK, GRPAGTCDS showed ND, ND, ND (controls 0 of 9).
The variant GFTLNSYGIS, VIYSWGRRTFYGDSVK, GRAAGTWDS showed 3.11, ND, ND (controls 0 of 9).
The variant GFTLNVYGIS, VIYSDGRRTFYGDSDK, GRAAGTRDS showed 4.42, 4.01, ND (mean 4.22; controls 4 of 9).
The variant GFTLNSYGIS, VIYSDGRREFYGDSVK, GRAAGTHDS showed 1.80, 1.98, 1.97 (mean 1.92; controls 0 of 9).
The variant GFTLNSYGIS, VIYSDGRRTFYGDSVK, EIAAGTVDS showed 4.75, ND, ND (controls 4 of 9).
The variant GFTCNSYGIS, VIYSDGRRTFYGDSVK, GRIAGTEDS showed ND, ND, 4.10 (controls 0 of 9).
The variant GFTLNSYGIS, VIYSDGRRTFDGDSVK, SRAAGTMDS showed ND, ND, ND (controls 1 of 9).
The variant GFTLNSYGIS, VIYMHGRRTFYGDSVK, GRAAGTDDS showed 6.70, 4.17, ND (mean 5.44; controls 6 of 9).
The variant HFTLNSYGIS, VIYSDGARTFYGDSVK, GRAAGTWDS showed 2.11, 2.26, 3.30 (mean 2.56; controls 3 of 9).
The variant GFVLNSYGIS, VIYSDGRRTFHGDSVK, GRAAGTGDS showed 4.51, 2.51, 2.69 (mean 3.24; controls 1 of 9).
The variant GFTLNSYGIS, VIYSDGRRTFYGDSVK, GRAPGTSDL showed ND, ND, 5.19 (controls 2 of 9).
The variant FFTLNSYGIS, VIYSDGRRTFYGDSVK, TRAAGTADS showed 3.48, 4.53, ND (mean 4.00; controls 5 of 9).
The variant GFTLNSYCIS, VIYSDGRRTFYGDSVK, GRAAGTYCS showed ND, ND, ND (controls 5 of 9).
The variant GFTLNSYGIS, VIYSDGRRTFNGTSVK, GRAAGTTDS showed 6.59, 4.76, ND (mean 5.67; controls 4 of 9).

Picked from the list: the 6 lowest averages where every replicate gave a value.

{"CDR-H1": "GFTLDSYGIS", "CDR-H2": "VIYSDGRRTFYGDSVK", "CDR-H3": "GRAAGTALS", "log10 Kd, replicates": "-0.47, -0.13, -0.43", "mean, log10 nM": "-0.34", "control signals": "0 of 9"}
{"CDR-H1": "GFTLNEYGIS", "CDR-H2": "VIYSDGRRTFYGDSVK", "CDR-H3": "GRAAHTKDS", "log10 Kd, replicates": "0.09, 0.45, 0.23", "mean, log10 nM": "0.26", "control signals": "4 of 9"}
{"CDR-H1": "GFTLNSYGIS", "CDR-H2": "VIYSDGRRTFYGDSVK", "CDR-H3": "GRAAGTWDS", "log10 Kd, replicates": "1.86, 1.63, 1.90", "mean, log10 nM": "1.80", "control signals": "1 of 9"}
{"CDR-H1": "GFTLNSYGIS", "CDR-H2": "VIYSDGRREFYGDSVK", "CDR-H3": "GRAAGTHDS", "log10 Kd, replicates": "1.80, 1.98, 1.97", "mean, log10 nM": "1.92", "control signals": "0 of 9"}
{"CDR-H1": "HFTLNSYGIS", "CDR-H2": "VIYSDGARTFYGDSVK", "CDR-H3": "GRAAGTWDS", "log10 Kd, replicates": "2.11, 2.26, 3.30", "mean, log10 nM": "2.56", "control signals": "3 of 9"}
{"CDR-H1": "GFVLNSYGIS", "CDR-H2": "VIYSDGRRTFHGDSVK", "CDR-H3": "GRAAGTGDS", "log10 Kd, replicates": "4.51, 2.51, 2.69", "mean, log10 nM": "3.24", "control signals": "1 of 9"}

Empty control strains, which show no peptide, gave a signal in 15% of pairings with library AAYL49; the median was 4.06 and 95% of these signals were weaker than 2.83. No background was subtracted. Also given: how often the same scFv was detected with the empty control strains.
In this assay the parent's reference entry averaged 0.65; its copy inside this library read 4.11 (one replicate of three).

From the AlphaSeq antibody data of Engelhart et al. 2022 (doi:10.1038/s41597-022-01779-4), copy in the FLAb collection.